Assay results as given in patent US9159937B2, “Heteroleptic light-emitting complexes” (SOLVAY SA, priority 2011, dated 2015).
Like-named read-outs stand apart in the source and are kept apart here.

Assay: Solubility evaluation in toluene
Type: physicochemical
Protocol: Solubility evaluation were performed at 25° C. using toluene as solvent.

[Ir(n-hexPhQ)3]
Toluene solubility S at 25° C.: S > 1.0 wt %
Toluene solubility S at 25° C. (listed as Ir(n-hexPhQ)3): > 1 wt %
